These results are taken from PMC7750258 (Progress in neuro-psychopharmacology & biological psychiatry, 2020).

Amino acid sequences for entries named in this document (tags omitted).
UniProt P47746, whole entry: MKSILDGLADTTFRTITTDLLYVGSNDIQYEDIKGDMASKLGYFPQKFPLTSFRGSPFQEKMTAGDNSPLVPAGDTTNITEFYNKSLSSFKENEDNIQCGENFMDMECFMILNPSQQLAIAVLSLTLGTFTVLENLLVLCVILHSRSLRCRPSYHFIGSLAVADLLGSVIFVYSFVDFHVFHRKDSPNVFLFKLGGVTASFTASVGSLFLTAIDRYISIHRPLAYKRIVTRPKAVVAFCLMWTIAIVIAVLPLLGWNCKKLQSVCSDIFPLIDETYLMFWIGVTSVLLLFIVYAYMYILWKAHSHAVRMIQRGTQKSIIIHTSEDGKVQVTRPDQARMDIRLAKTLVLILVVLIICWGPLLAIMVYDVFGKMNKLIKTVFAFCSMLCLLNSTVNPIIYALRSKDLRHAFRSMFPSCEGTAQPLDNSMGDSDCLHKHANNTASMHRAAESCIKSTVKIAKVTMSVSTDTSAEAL

The target in experiment [1] is T1, CB1 receptor (Mus musculus, UniProt P47746). In words: Agonist-stimulated [35S]GTPγS binding in mouse cerebellar membranes. The class given is biochemical, ICR mice. The note with it: Potency (EC50 ± SEM) nM, cerebellum.
Experiment [2] deals with T1, CB1 receptor. In words: [3H]CP55,940 displacement binding in mouse cerebellar membranes. On the set-up: species or system ICR mice. The note with it: CB1 Binding Affinity (Ki in nM), female mice, cerebellum; N = 4 / value.

As usually defined, the EC50 is the concentration giving half of the maximal effect. Lower therefore signals a more potent agent. The Ki is a dissociation constant, usually derived from enzyme kinetics or from competition with a known ligand. High values mean lower affinity, low ones higher affinity. Regarding `CCCCCc1cc(O)c2c(c1)OC(C)(C)[C@@H]1CCC(C)=C[C@@H]21` [THC, Δ^9-tetrahydrocanabinol], the values for the EC50 at CB1 receptor [1] (female mice) and at CB1 receptor [1] (male mice) were 68.2 nM and 64.6 nM, respectively. Further, on CB1 receptor [2], the Ki turned out to be 37.5 nM.
